The record followed here is ChEMBL document CHEMBL5034035, “Discovery of an Oxycyclohexyl Acid Lysophosphatidic Acid Receptor 1 (LPA1) Antagonist BMS-986278 for the Treatment of Pulmonary Fibrotic Diseases” (J Med Chem, 2021).

Sequences of proteins named here, by UniProt entry; tags and fusion partners are left off. A change or cut given only in a name is not applied to a line headed by its entry.
UniProt P61793: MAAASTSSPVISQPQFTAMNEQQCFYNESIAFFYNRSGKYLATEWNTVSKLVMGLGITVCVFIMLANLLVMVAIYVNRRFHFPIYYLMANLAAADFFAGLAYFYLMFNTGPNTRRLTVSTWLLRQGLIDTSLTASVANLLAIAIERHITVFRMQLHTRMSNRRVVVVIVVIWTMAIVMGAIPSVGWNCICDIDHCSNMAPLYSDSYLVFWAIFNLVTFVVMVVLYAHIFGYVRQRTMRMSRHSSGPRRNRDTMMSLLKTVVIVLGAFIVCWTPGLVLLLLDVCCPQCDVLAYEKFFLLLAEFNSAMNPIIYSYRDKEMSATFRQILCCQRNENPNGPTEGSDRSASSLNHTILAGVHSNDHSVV

The assay deals with Lysophosphatidic acid receptor 1 (Mus musculus) (UniProt P61793). Nature of the assay: Antagonist activity at mouse LPA1 receptor expressed in CHO cells assessed as inhibition of LPA stimulated calcium flux incubated for 20 mins followed by LPA stimulation and measured for 90 seconds. The format is functional, cell-based. Particulars: filed as antagonist.

Usually Kb stands for the affinity of an antagonist, worked out from how it opposes an agonist. Turning to `Cc1nc(-c2nnn(C)c2COC(=O)N(C)CC2CCC2)ccc1O[C@H]1CCC[C@H](C(=O)O)C1`, the Kb is 1.4 nM.
